This note sets out measurements from PubChem BioAssay AID1662 (Broad Institute, 2009).

This is a selection; strong and weak results do not stand in their true shares. Active and inactive are the calls of the source.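 How the source made its calls: active means mean replicate score, as percent of positive control median, at least 50; inconclusive means mean below 50 but one replicate at or above 50; inactive means mean and every replicate below 50.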

The nature of this test: S. pyogenes SKKanGAS growth inhibitors in kanamycin, primary screen, streptokinase expression inhibitor project, SKKanGAS strain, BacTiter-Glo luminescence (AID 1662).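 Further: strain carries kanamycin resistance gene driven by streptokinase promoter and grows in 40 µg/ml kanamycin; loss of luminescence reflects streptokinase promoter inhibition or plain growth inhibition; 0% = median of DMSO wells and 100% = positive control at its reference dose.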 The conditions noted are these: 6 h, at 7.5 µM, active compounds read high.
On to `Cc1ccccc1OP(=O)(Nc1ccccn1)Oc1ccccc1C`, for which the inhibition is inactive: -2.28%.

For `CN(C)C(=O)Oc1noc2ccccc12`, the inhibition was inactive: -6.03%.

For the compound `O=C(OC1CN2CCC1CC2)c1ccccc1` (stereo not drawn), the inhibition is inactive: -4.35%.

Consider `CCC(=O)N1C2C3N(C(=O)CC)C1C1N(C(=O)CC)C(C(N1C(=O)CC)N3C(=O)CC)N2C(=O)CC`, for which the inhibition was inactive: -3.03%.

Turning to `COC(=O)c1cc2c(s1)N=C(c1ccccc1)N(C)P2(=O)N1CCOCC1` (stereo not drawn), the inhibition was inactive: 1.52%.

With `Cc1ccc(OP(=O)(Nc2ccccn2)Oc2ccc(C)cc2)cc1`, the inhibition was inactive: 2.32%.

`CC(=O)NC(SC(=S)N(CC(C)C)CC(C)C)C(Cl)(Cl)Cl` (stereo not drawn): the inhibition was inactive: 3.39%.

Regarding `CCOP(=O)(Nc1ccccc1)OCC`, the inhibition is inactive: -0.485%.

As for `Cc1cc(SC(NC(=O)c2ccc(F)cc2)C(Cl)(Cl)Cl)ncn1` (stereo not drawn), the inhibition was inactive: 1.91%.

On to `Cc1ccc(NP(=O)(Oc2ccccc2F)Oc2ccccc2F)nc1`, for which the inhibition is inactive: 14.3%.

For the compound `CN(C(=O)Cc1ccc(Cl)c(Cl)c1)[C@H]1CCCC[C@@H]1N1CCCC1`, the inhibition was inactive: 0.808%.

Consider `O=P(Nc1nc2ccc(Cl)cc2s1)(c1ccccc1)c1ccccc1`, for which the inhibition was active: 90.4%.

Consider `O=C(O)c1ccccc1[As](=O)(O)O`, for which the inhibition was inactive: -3.11%.

As for `CC(=O)Nc1ccc([As](=O)(O)O)cc1`, the inhibition was inactive: -4.12%.

As for `CC(=O)O[C@]1(C)C(=O)OC/C2=C/CN(C)CCC(OC(=O)[C@@](O)(C(C)O)C[C@H]1C)C2=O` (stereo partly drawn), the inhibition is inactive: -0.161%.

As for `Nc1cccc2ccc([As](=O)(O)O)cc12`, the inhibition was inactive: 0.981%.

For the compound `CCN(N=Nc1nonc1N)c1nonc1N`, the inhibition was inactive: 4.98%.

Consider `O=[N+]([O-])c1cc([N+](=O)[O-])c(CCN2CCOCC2)c([N+](=O)[O-])c1`, for which the inhibition was inactive: 19.4%.

On to `Clc1ccc(Cl)c(NC2=NCC(CBr)S2)c1` (stereo not drawn), for which the inhibition is inactive: 5.04%.

On to `CN1CCCC(OC(=O)C(c2ccccc2)c2ccccc2)C1` (stereo not drawn), for which the inhibition is inactive: 6.59%.

Regarding `CC(C)[C@H]1C(=O)O[C@@H]2CCN3CC=C(COC(=O)[C@](C)(O)[C@]1(C)O)[C@H]23`, the inhibition is inactive: 0.512%.

Regarding `COc1ccccc1OP(=O)(Nc1ccc(C)cn1)Oc1ccccc1OC`, the inhibition is inactive: -3.24%.

For the compound `Cc1ccc(OP(=O)(Nc2nccs2)Oc2ccc(C)cc2)cc1`, the inhibition is inactive: 36.2%.

Take `Cc1ccc(N/C(=N/P(=O)(N2CCOCC2)N2CCOCC2)N2CCOCC2)cc1`: the inhibition is inactive: 2.4%.

In the case of `NC(=O)c1cc([N+](=O)[O-])cc([N+](=O)[O-])c1N`, the inhibition is inactive: 1.38%.

With `Oc1ccccc1CNc1ccccn1`, the inhibition was inactive: -13.2%.

As to `Cc1c2non([O-])c-2c(C)[n+](=O)[n+]1[O-]`, the inhibition was inactive: 0.057%.

Consider `O=C(NC(Sc1ccncn1)C(Cl)(Cl)Cl)c1ccccc1` (stereo not drawn), for which the inhibition is inactive: -11.3%.

With `CC(C)CC(=O)NC(Sc1ccc(Cl)cc1)C(Cl)(Cl)Cl` (stereo not drawn), the inhibition is inactive: 34.5%.

Take `Nc1cc(N)c2nonc2c1[N+](=O)[O-]`: the inhibition was inactive: -6.6%.

For the compound `Cc1ccc(NP(=O)(Oc2ccccc2)Oc2ccccc2)nc1`, the inhibition is inactive: 2%.

For `C=C1C/C(=C/C)C(=O)O[C@@H]2CCN3CC=C(COC(=O)[C@]1(C)O)[C@H]23`, the inhibition is inactive: -0.262%.

With `CCc1nc2c(n1)c1c(non1O)c1c2no[n+]1[O-]`, the inhibition is inactive: 7.31%.

As to `O=[N+]([O-])c1cc([N+](=O)[O-])c(CCNc2ccccc2)c([N+](=O)[O-])c1`, the inhibition is inactive: 30.8%.

Consider `O=[N+]([O-])c1cccc2n[nH]nc12`, for which the inhibition is inactive: 0.85%.

Turning to `CC(=O)N1C2C3N(C(C)=O)C1C1N(C(C)=O)C(C(N1C(C)=O)N3C(C)=O)N2C(C)=O`, the inhibition is inactive: -2.89%.

As to `COc1ccc(C2=NCC(CBr)S2)cc1` (stereo not drawn), the inhibition was inactive: 1.38%.

`CC1CCN(C(=O)Oc2c(Cl)cc(Cl)c3cccnc23)CC1`: the inhibition is inactive: 45.3%.

Take `CC(C)=N/N=C(\N)N[N+](=O)[O-]`: the inhibition was inactive: -8.54%.

`CN(C)C(=O)OCCc1n(C)cc[n+]1C`: the inhibition is inactive: -1.38%.

In the case of `CCN(/C(=N/P(=O)(N1CCOCC1)N1CCOCC1)N1CCOCC1)c1ccc(OC)cc1`, the inhibition is inactive: 9.27%.

With `Nc1ccc([As](=O)(O)c2ccc(N)cc2)cc1`, the inhibition is inactive: -14.8%.

Consider `C[N+]1=C2C=CC=CC=C2SC12C([N+](=O)[O-])=CC([N+](=O)[O-])=C[C-]2[N+](=O)[O-]` (stereo not drawn), for which the inhibition is inactive: 9.47%.

As for `O=C(Nc1cc([As](=O)(O)O)ccc1O)c1ccccc1`, the inhibition was inactive: 0.327%.

On to `O=C(O)CNc1ccc([As](=O)(O)O)cc1`, for which the inhibition is inactive: -0.953%.

As to `O=[N+]([O-])c1cccc(NC2=NCC(CBr)S2)c1` (stereo not drawn), the inhibition was inactive: -2.03%.

As for `O=[N+]([O-])c1ncn(CCn2ncnc2[N+](=O)[O-])n1`, the inhibition was inactive: -6.29%.

`CC(C)(C)C(=O)NC(Sc1ccncn1)C(Cl)(Cl)Cl` (stereo not drawn): the inhibition was inactive: -0.729%.

In general, inhibition refers to the relative decrease from the control value, in per cent.
